# From PubChem BioAssay AID588726 (The Scripps Research Institute Molecular Screening Center, 2011)
# By UniProt entry, the sequences of proteins in these tests, tags left out.
# UniProt P9WQA3, whole entry: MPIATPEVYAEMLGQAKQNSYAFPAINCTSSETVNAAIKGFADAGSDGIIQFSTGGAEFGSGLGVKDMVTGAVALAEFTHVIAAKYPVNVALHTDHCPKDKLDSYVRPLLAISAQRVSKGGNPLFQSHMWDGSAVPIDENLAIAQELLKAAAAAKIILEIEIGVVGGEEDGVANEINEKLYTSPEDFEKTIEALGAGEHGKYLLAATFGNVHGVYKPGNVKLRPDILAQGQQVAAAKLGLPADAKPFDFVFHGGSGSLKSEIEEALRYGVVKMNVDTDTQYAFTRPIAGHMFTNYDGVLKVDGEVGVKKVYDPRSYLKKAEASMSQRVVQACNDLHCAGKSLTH
# The entries are a selection whose mix differs from that of the whole data set. Some results for these compounds are left out of this collection, so the calls shown say nothing about other tests. The source made the active and inactive calls. Rule as the data show it: active = inhibition above about 27%; inactive = the rest.
# Target: Fructose-bisphosphate aldolase (Mycobacterium tuberculosis (strain ATCC 25618 / H37Rv)) (UniProt P9WQA3)
# Experiment: Mtb FBA enzyme inhibitors, primary screen, biochemical, fluorescence, strain H37Rv (AID 588726);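 also: 0% = vehicle and 100% = reference inhibitor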
# Details: purified M. tuberculosis FBA, fluorescence read-out; at 1 µM; hits give high values
row,Compound,inhibition
1,Cc1ccc(C(=O)NCC2(N3CCCCC3)CCCCC2)cc1,inactive: -2.05%
2,CC(C)N1C(=O)CC2(CCN(CCOC(=O)C(O)(c3ccccc3)c3ccccc3)CC2)C1=O,inactive: 5.06%
3,CCN(CC)CC(C)C(C)OC(=O)C(O)(c1ccccc1)c1ccccc1 (stereo unspecified),inactive: 2.68%
4,COc1cc(SC)ccc1C(=O)NCC1(N(C)C)CCCCC1,inactive: 2.6%
5,CN1[C@@H]2CC[C@H]1CC(OC(=O)C(O)(c1ccccc1)c1ccccc1)C2 (stereo partly specified),inactive: 0.91%
6,O=C(NCC1(N2CCCCC2)CCCCC1)c1cc([N+](=O)[O-])ccc1Cl,inactive: -1.93%
7,Cc1cc(C(=O)NCC2(N3CCCCC3)CCCCC2)ccc1[N+](=O)[O-],inactive: -0.33%
8,CCN1CCCC(OC(=O)C2(O)c3ccccc3C=Cc3ccccc32)C1 (stereo unspecified),inactive: 5.57%
9,O=C(NCC1(N2CCCCC2)CCCCC1)c1cccc(Br)c1,inactive: 0.77%
10,COc1ccc(C(=O)NCC2(N(C)C)CCCCC2)cc1,inactive: 0.59%
11,C=CCN1CCN(CCOC(=O)C(O)(c2ccccc2)c2ccccc2)CC1,inactive: 1.81%
12,O=C(NCC1(N2CCCCC2)CCCCC1)c1cc(F)c(F)cc1Cl,inactive: 1.17%
13,Cc1ccccc1C(=O)NCC1(N2CCCCC2)CCCCC1,inactive: -8.75%
14,CN(C)C1CCCC1OC(=O)C(O)(c1ccccc1)c1ccccc1 (stereo unspecified),inactive: 1.19%
15,CN(C)c1ccc(C(=O)NCC2(N(C)C)CCCCC2)cc1,inactive: -0.15%
16,O=C(NCC1(N2CCCCC2)CCCCC1)c1cccc(Cl)c1,inactive: 0.44%
17,COc1cccc(C(=O)NCC2(N3CCCCC3)CCCCC2)c1,inactive: 1.89%
18,COc1ccc(Cl)cc1C(=O)NCC1(N(C)C)CCCCC1,inactive: 0.49%
19,COc1cc(C(=O)NCC2(N(C)C)CCCCC2)c([N+](=O)[O-])cc1OC,inactive: 0.32%
20,CN(C)C1(CNC(=O)c2ccc(Br)cc2)CCCCC1,inactive: 0.74%
21,CN(C)c1cccc(C(=O)NCC2(N(C)C)CCCCC2)c1,inactive: 3.66%
22,CC(C)Oc1ccc(C(=O)NCC2(N(C)C)CCCCC2)cc1,inactive: 0.97%
23,O=C(OCCN1CCCC1)C(O)(c1ccccc1)c1ccccc1,inactive: -0.83%
24,COc1ccc(Br)c(C(=O)NCC2(N3CCCCC3)CCCCC2)c1,inactive: -2.75%
25,C=C(C)C#CC(O)(C(=O)OC1CCN(C)CC1)c1ccccc1 (stereo unspecified),inactive: 3.31%
26,O=C(OC1CN2CCC1CC2)C(CO)(c1ccccc1)c1ccccc1 (stereo unspecified),inactive: 3.06%
